Assay [1] has as its target mutEGFR (D770_N771insSVD) (Homo sapiens, UniProt P00533, DUP768-770). The assay is described as follows: Exon20-Mutant-EGFR (D770_N771insSVD) kinase assay (TR-FRET). Conditions: read-out: mutEGFR (D770_N771insSVD) kinase assay IC50, Table 2a, 2 mM ATP. From the text: (§1) The different EGFR proteins used in the biochemical kinase activity inhibition assays were generated inhouse by expression in insect cells using Baculo Virus system and subsequent purification as described in the following paragraphs.
(§2) The cDNAs encoding the various protein sequences from human EGFR human (P00533) were optimized for expression in eukaryotic cells and synthesized by the GeneArt Technology at Life Technologies.
Construct EGFR #3 amino acid R669 to A1210 and the insertion of the amino acids sequence SVD between D770 and N771
Inhibitory activity of compounds of the present invention against an Epidermal Growth Factor Receptor (EGFR) with an insertion of the amino acids sequence SVD between D770 and N771 was quantified employing the TR-FRET based kinase activity assay as described in the following paragraphs. […]
The resulting mixture was incubated 1 h at 22° C. to allow the binding of the biotinylated phosphorylated peptide to the streptavidine-XL665 and the PT66-Tb-Cryptate. Subsequently the amount of phosphorylated substrate was evaluated by measurement of the resonance energy transfer from the PT66-Tb-Cryptate to the streptavidine-XL665. Therefore, the fluorescence emissions at 620 nm and 665 nm after excitation at 337 nm were measured in a HTRF reader, e.g. a Pherastar (BMG Labtechnologies, Offenburg, Germany) or a Viewlux (Perkin-Elmer). […]
On the technique in general: In TR-FRET formats the signal depends on donor and acceptor labels being close together.

Sequences of proteins named here, by UniProt entry; tags and fusion partners are left off. A line that says so, or that is headed by a name, gives the form on record, which may keep a tag or linker. Residues count along the entry.
UniProt P00533, 669-1210 with tags or gaps DUP768-770 limits assumed: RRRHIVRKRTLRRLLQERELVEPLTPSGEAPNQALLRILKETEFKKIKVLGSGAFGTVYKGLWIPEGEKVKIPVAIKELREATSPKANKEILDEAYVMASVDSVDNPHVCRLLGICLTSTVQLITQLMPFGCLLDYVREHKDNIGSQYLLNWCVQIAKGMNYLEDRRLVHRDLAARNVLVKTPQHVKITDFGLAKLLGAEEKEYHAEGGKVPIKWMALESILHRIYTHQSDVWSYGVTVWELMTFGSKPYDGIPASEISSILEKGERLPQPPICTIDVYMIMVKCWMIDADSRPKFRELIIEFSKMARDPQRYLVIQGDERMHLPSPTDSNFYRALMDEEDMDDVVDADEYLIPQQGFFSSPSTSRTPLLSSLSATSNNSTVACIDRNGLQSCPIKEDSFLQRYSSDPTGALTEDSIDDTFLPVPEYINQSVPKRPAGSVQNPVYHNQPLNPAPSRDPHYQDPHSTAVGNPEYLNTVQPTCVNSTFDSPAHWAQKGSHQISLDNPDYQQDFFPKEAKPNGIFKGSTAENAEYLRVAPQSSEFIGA
UniProt P00533, 669-1210 with tags or gaps INS770NPG/T790M limits assumed: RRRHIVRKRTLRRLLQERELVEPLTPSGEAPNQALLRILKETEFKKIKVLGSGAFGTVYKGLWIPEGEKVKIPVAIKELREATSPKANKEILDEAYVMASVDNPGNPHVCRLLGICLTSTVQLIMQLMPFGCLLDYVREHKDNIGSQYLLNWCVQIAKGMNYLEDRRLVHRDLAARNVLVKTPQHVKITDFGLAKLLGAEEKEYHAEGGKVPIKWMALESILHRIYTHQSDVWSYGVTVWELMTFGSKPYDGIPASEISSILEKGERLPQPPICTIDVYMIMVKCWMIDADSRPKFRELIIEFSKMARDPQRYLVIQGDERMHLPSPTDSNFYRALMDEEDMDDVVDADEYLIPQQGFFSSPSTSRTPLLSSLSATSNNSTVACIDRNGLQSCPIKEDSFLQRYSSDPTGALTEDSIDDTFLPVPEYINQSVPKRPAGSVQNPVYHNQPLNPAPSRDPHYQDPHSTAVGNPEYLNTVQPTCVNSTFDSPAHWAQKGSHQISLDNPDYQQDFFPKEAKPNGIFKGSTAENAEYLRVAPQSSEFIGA

For assay [2], the target named is mutEGFR (D770_N771insNPG, T790) (Homo sapiens, UniProt P00533, INS770NPG/T790M). The assay is described as follows: mutEGFR (D770_N771insNPG, T790) kinase assay. Conditions: read-out: mutEGFR (D770_N771insNPG, T790) kinase assay IC50, Table 2a.
Source text: as §1, §2

The next assay has as its system BA/F3 (insSVD) cells. The assay is described as follows: Ba/F3-EGFR-insSVD cell survival assay (Cell Titer-Glo). Conditions: read-out: BA/F3 (insSVD) IC50, Table 3a, with 10 ng/ml EGF, without IL-3, 48 h. The protocol: Cellular Data Description (WT, insSVD, insSVD T790M) 293T cells from ATCC were transfected with pBABEpuro expression constructs for WT EGFR or EGFR-insSVD, or EGFR-insSVD T790M, and pCL-Eco packaging vector using Fugene-6 transfection reagent from Promega. Plates were incubated at 37° C. for 48 h. Retrovirus was harvested by filtering the media supernatant through a 0.45 μm filter.
Ba/F3 cells purchased from DSMZ were grown in RPMI+10% FBS+10 ng/ml IL-3 and infected with filtered retroviral supernatant at a 1:2 dilution. Polybrene was added to a concentration of 8 μg/mL, plates were spun for 90 min, and incubated for 16 h at 37° C. 2 μg/mL puromycin was added to the infected cells 24 h after infection and cells were continually grown in the presence of puromycin and 10 ng/ml IL-3. Following stably expressing Ba/F3 cell lines were generated: Ba/F3-EGFR-WT, Ba/F3-EGFR-insSVD, Ba/F3-EGFR-insSVD T790M, (Ba/F3-vector-control).
For cell survival assays, Ba/F3 cells were grown to a density of 1-2 million cells per mL, spun down and resuspended in media without IL-3, and replated at a concentration of 200,000-500,000 cells per mL. […]
Cell viability was measured by adding 20 μL of Cell Titer-Glo Luminescent Cell Viability Reagent diluted 1:3 in PBS. […] Plates were incubated in low light conditions for 8-10 min and luminescence was measured.
(In general: In ATP-based viability assays light output follows the ATP content of the culture.)

Each structure is given as a SMILES string.

As to `C=CC(=O)N1CCn2nc(Nc3ccc(OC)c(F)c3)c(-c3ccnc4[nH]cc(C)c34)c2C1`, the IC50 is 3630 nM in assay [1], 879 nM in assay [2] and 2950 nM in the assay with BA/F3 (insSVD) cells.

The values above are taken from US20260365653A1, “IRREVERSIBLE MUTEGFR INHIBITORS” (Bayer Aktiengesellschaft, priority 2022, published 2026).
